Measured values from patent publication US4018930A, “Substituted indolobenzazepines” (Endo Laboratories, Inc., priority 1975, dated 1977).

Tested on: mice
Assay: Phenylquinone Writhing (P.Q.W.) test, analgesic activity
Assay type: in vivo, mouse
Settings: for P.Q.W. ED50 (analgesic ED50): phenyl-p-benzoquinone 2.5 mg/kg ip 30 min after dose, 30-minute count

Row | Compound | analgesic potency relative to codeine phosphate (more potent than codeine phosphate, po, mouse) | P.Q.W. ED50 (analgesic ED50) (po, mouse) | analgesic activity (in words) (compared to codeine phosphate)
1 | C=CCN1CC[C@@H]2[C@@H](C1)c1cccc3c1N2c1ccccc1CC3.Cl (racemic) | about 20 X | 1 mg/kg | –
2 | C#CCN1CC[C@@H]2[C@@H](C1)c1cccc3c1N2c1ccccc1CC3 (racemic) | – | 2 mg/kg | analgesic activity compared to codeine phosphate
